Source: US8053450B2, “Amino-benzazoles as P2Y1 receptor inhibitors with pyridine ring and heterocyclic components” (Bristol-Myers Squibb Company, priority 2004, dated 2011)

Amino acid sequences for entries named in this document (tags omitted). A change or cut given only in a name is not applied to a line headed by its entry.
UniProt P47900: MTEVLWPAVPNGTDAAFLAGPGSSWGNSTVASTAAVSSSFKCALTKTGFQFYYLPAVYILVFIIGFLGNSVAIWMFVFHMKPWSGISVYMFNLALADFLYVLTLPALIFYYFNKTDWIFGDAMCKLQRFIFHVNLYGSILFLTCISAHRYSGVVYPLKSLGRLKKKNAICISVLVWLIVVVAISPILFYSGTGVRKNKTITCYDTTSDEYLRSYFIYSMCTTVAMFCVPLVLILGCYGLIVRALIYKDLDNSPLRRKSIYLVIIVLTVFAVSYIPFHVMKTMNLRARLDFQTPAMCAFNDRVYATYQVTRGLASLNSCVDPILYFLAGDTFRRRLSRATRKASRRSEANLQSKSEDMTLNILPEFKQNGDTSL

Biological target: T1, cloned human P2Y1 receptors (Homo sapiens, UniProt P47900)
T1 construct: expressed in transfected cells
Assay: P2Y1 membrane binding assay ([33P] 2MeS-ADP displacement)
Conditions: radioligand Kd used in the Cheng-Prusoff calculation; read-out: Kd for 2MeS-ADP to the P2Y1 receptor
Text: A membrane binding assay was used to identify inhibitors of [^33P] […] The cDNA clone for human P2Y1 was obtained from Incyte Pharmaceuticals and its sequence confirmed by established techniques (for a compendium of techniques used see Ausubel, F. et al. Current Protocols in Molecular Biology 1995 John Wiley and Sons, NY, N.Y.). The essential coding sequences were subcloned into pCDNA 3.1 (Invitrogen) to produce a P2Y1 expression construct. This construct was then transfected into the human embryonic kidney cell line HEK-293 and stable transfectants selected in Genetcin® (G418 sulfate; Life Technologies). […] Membranes were prepared by growing HEK293 #49 in 150 mm dishes in DMEM/10% FBS in the presence of 1 mg/ml G418 until cells were 80-90% confluent. Plates were then washed with cold (4° C.) D-PBS twice and cells harvested by scraping into 10 mL D-PBS. Cells were pelleted by centrifugation (1,000 g, 10 min, 4° C.) and the resulting pellet resuspended in Lysis Buffer (10 mM Tris (7.4), 5 mM MgCl2 containing Complete® protease inhibitor cocktail (Roche Cat #1873580) as recommended by the manufacturer). […]
Reactions were allowed to proceed to completion at room temperature for 1 hour and then the aqueous solution aspirated. Plates were sealed and the residual [^33P] bound to the plate determined by scintillation counting.

Kd: 1.4 nM
Compound: CSc1nc(N)c2ncn([C@@H]3O[C@H](COP(=O)(O)OP(=O)(O)O)[C@@H](O)[C@H]3O)c2n1 [Example 2MeS-ADP, 2MeS-ADP]
